Earlier results as cited in patent publication US20090306452A1, “APPARATUS FOR TREATING A CONTAMINATED MEDIA WITH A SORBENT” (priority 2008, published 2009).

Details: log10 of concentration in octanol / concentration in water; examples of hydrophobic hazardous materials

tetrachlorobenze
Log P: about 5
